In US20100009907A1, “Glucagon-Like Peptides and Uses Thereof” (AMYLIN PHARMACEUTICALS, INC., priority 2006, published 2010):

Experiments:
[1] = molecular target: T1, RINm5f cells expressing endogenous GLP-1, calcitonin, and GIP receptors (Rattus norvegicus, UniProt P32301); test: GLP/GIP/CT cAMP (RIN) assay; format: cell-based
T1 construct: RINm5f cells expressing endogenous GLP-1, calcitonin, and GIP receptors; endogenous in cells; host or cells: RINm5f cells
T1 sequence (P32301 22-463): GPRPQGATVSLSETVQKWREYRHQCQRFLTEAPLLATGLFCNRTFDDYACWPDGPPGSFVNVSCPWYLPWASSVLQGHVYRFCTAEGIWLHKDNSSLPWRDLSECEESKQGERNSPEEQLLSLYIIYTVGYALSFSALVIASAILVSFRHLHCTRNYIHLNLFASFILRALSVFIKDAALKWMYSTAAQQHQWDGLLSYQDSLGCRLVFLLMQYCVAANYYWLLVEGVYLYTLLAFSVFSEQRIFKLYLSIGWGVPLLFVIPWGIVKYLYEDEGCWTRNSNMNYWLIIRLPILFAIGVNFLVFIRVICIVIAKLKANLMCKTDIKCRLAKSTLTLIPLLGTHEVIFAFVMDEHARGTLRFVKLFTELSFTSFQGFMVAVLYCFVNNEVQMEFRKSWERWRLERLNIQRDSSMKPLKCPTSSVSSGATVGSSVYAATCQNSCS
Description: In addition, receptor binding can be measured using cells prepared from confluent cultures of RINm5f cells expressing endogenous GLP-1, calcitonin, and GIP receptors. Cells, and peptide or buffer solution are combined in 384-well plates. After a 30-minute incubation at room temperature in air, cAMP content is measured as recommended in the Perkin-Elmer AlphaScreen kit instructions.
Cells, and peptide or buffer solutions are combined in 384-well plates and incubated at room temperature in air for 30-minutes. cAMP content can then be measured according to recommendations in the Perkin-Elmer AlphaScreen™ kit instructions using the Perkin Elmer Fusion fluorimeter and data are analyzed using XLfit software (IDBS).

[2] = Acute food intake assay (FI Assay); format: in vivo, NIH/Swiss mice; settings: 1000 μg/kg intraperitoneal, relative to vehicle
Description: The effect of various test peptides on food intake is investigated using an acute food intake assay. This assay measures food consumption in lean, group-housed, overnight-fasted NIH/Swiss mice. Twelve mice are housed three to a cage. […] Decreased, as well as increased, food intake is measured. Testing of the various doses of the polypeptide generates ED50s.
Female NIH/Swiss mice (8-24 weeks old) are group housed with a 12:12 hour light:dark cycle with lights on at 0600. Water and a standard pelleted mouse chow diet are available ad libitum, except as noted. Animals are fasted starting at approximately 1500 hrs, 1 day prior to experiment. The morning of the experiment, animals are divided into experimental groups.
At time=0 min, all animals are given an intraperitoneal injection of vehicle or compound in an amount ranging from about 63 to 1000 μg/kg, and immediately given a pre-weighed amount (10-15 g) of the standard chow.

Question: With CC[C@H](C)[C@H](NC(=O)[C@H](CC(C)C)NC(=O)[C@H](Cc1c[nH]c2ccccc12)NC(=O)[C@H](CC(=O)O)NC(=O)[C@@H](NC(=O)[C@H](Cc1ccccc1)NC(=O)[C@H](CCC(=O)O)NC(=O)[C@H](CCCCN)NC(=O)[C@H](C)NC(=O)[C@H](C)NC(=O)[C@H](CCCCN)NC(=O)[C@H](CCC(=O)O)NC(=O)[C@H](CC(=O)O)NC(=O)[C@H](CC(C)C)NC(=O)[C@H](CCC(N)=O)NC(=O)[C@H](CCC(N)=O)NC(=O)[C@@H](NC(=O)[C@@H](NC(=O)[C@H](CC(=O)O)NC(=O)[C@H](CO)NC(=O)[C@@H](NC(=O)[C@H](Cc1ccccc1)NC(=O)[C@@H](NC(=O)CNC(=O)[C@H](CCC(=O)O)NC(=O)[C@@H](C)NC(=O)[C@@H](N)Cc1c[nH]cn1)[C@@H](C)O)[C@@H](C)O)C(C)C)[C@@H](C)O)[C@@H](C)CC)C(=O)N[C@@H](CC(N)=O)C(N)=O [compound 8] as the compound, how does the “GLP/GIP/CT cAMP(RIN) EC50” value [1] read?
Answer: 19 nM

Question: For CC[C@H](C)[C@H](NC(=O)[C@H](CC(C)C)NC(=O)[C@H](Cc1c[nH]c2ccccc12)NC(=O)[C@H](CC(=O)O)NC(=O)[C@@H](NC(=O)[C@H](Cc1ccccc1)NC(=O)[C@H](CCC(=O)O)NC(=O)[C@H](CCCCN)NC(=O)[C@H](C)NC(=O)[C@H](C)NC(=O)[C@H](CCCCN)NC(=O)[C@H](CCC(=O)O)NC(=O)[C@H](CC(=O)O)NC(=O)[C@H](CC(C)C)NC(=O)[C@H](CCC(N)=O)NC(=O)[C@H](CCC(N)=O)NC(=O)[C@@H](NC(=O)[C@@H](NC(=O)[C@H](CC(=O)O)NC(=O)[C@H](CO)NC(=O)[C@@H](NC(=O)[C@H](Cc1ccccc1)NC(=O)[C@@H](NC(=O)CNC(=O)[C@H](CCC(=O)O)NC(=O)[C@@H](C)NC(=O)[C@@H](N)Cc1c[nH]cn1)[C@@H](C)O)[C@@H](C)O)C(C)C)[C@@H](C)O)[C@@H](C)CC)C(=O)N[C@@H](CC(N)=O)C(=O)NCC(=O)NCC(=O)N1CCC[C@H]1C(=O)N[C@@H](CO)C(=O)N[C@@H](CCCCN)C(=O)N[C@@H](CCC(=O)O)C(=O)N[C@H](C(=O)N[C@H](C(=O)N[C@@H](CO)C(N)=O)[C@@H](C)CC)[C@@H](C)CC [compound 10], which “GLP/GIP/CT cAMP(RIN) EC50” value [1] is on record?
Answer: 0.048 nM

Question: Which “Food Intake % inhibition 30 min” value [2] does the source give for CC[C@H](C)[C@H](NC(=O)[C@H](CC(C)C)NC(=O)[C@H](Cc1c[nH]c2ccccc12)NC(=O)[C@H](CC(=O)O)NC(=O)[C@@H](NC(=O)[C@H](Cc1ccccc1)NC(=O)[C@H](CCC(=O)O)NC(=O)[C@H](CCCCN)NC(=O)[C@H](C)NC(=O)[C@H](C)NC(=O)[C@H](CCCCN)NC(=O)[C@H](CCC(=O)O)NC(=O)[C@H](CC(=O)O)NC(=O)[C@H](CC(C)C)NC(=O)[C@H](CCC(N)=O)NC(=O)[C@H](CCC(N)=O)NC(=O)[C@@H](NC(=O)[C@@H](NC(=O)[C@H](CC(=O)O)NC(=O)[C@H](CO)NC(=O)[C@@H](NC(=O)[C@H](Cc1ccccc1)NC(=O)[C@@H](NC(=O)CNC(=O)[C@H](CCC(=O)O)NC(=O)[C@@H](C)NC(=O)[C@@H](N)Cc1c[nH]cn1)[C@@H](C)O)[C@@H](C)O)C(C)C)[C@@H](C)O)[C@@H](C)CC)C(=O)N[C@@H](CC(N)=O)C(=O)NCC(=O)NCC(=O)N1CCC[C@H]1C(=O)N[C@@H](CO)C(=O)N[C@@H](CCCCN)C(=O)N[C@@H](CCC(=O)O)C(=O)N[C@H](C(=O)N[C@H](C(=O)N[C@@H](CCCCNC(=O)CCC(C)C)C(N)=O)[C@@H](C)CC)[C@@H](C)CC [compound 15] here?
Answer: 70%

Question: What about the “Food Intake % inhibition 60 min” value [2] of the same compound?
Answer: 81%

Question: And the “Food Intake % inhibition 120 min” value [2]?
Answer: 83%

Question: What about the “Food Intake % inhibition 180 min” value [2] of the same compound?
Answer: 84%

Question: Which results are given for CCCCCCCCCNC(=O)CSC[C@H](NC(=O)[C@H](C)NC(=O)[C@H](C)NC(=O)[C@H](CCCCN)NC(=O)[C@H](CCC(=O)O)NC(=O)[C@H](CC(=O)O)NC(=O)[C@H](CC(C)C)NC(=O)[C@H](CCC(N)=O)NC(=O)[C@H](CCC(N)=O)NC(=O)[C@@H](NC(=O)[C@@H](NC(=O)[C@H](CC(=O)O)NC(=O)[C@H](CO)NC(=O)[C@@H](NC(=O)[C@H](Cc1ccccc1)NC(=O)[C@@H](NC(=O)[C@H](Cc1ccccc1)NC(=O)[C@H](CCC(=O)O)NC(=O)[C@@H](C)NC(=O)[C@@H](N)Cc1c[nH]cn1)[C@@H](C)O)[C@@H](C)O)C(C)C)[C@@H](C)O)C(=O)N[C@@H](CCC(=O)O)C(=O)N[C@@H](Cc1ccccc1)C(=O)N[C@H](C(=O)N[C@@H](CC(=O)O)C(=O)N[C@@H](Cc1c[nH]c2ccccc12)C(=O)N[C@@H](CC(C)C)C(=O)N[C@H](C(=O)N[C@@H](CC(N)=O)C(=O)NCC(=O)NCC(=O)N1CCC[C@H]1C(=O)N[C@@H](CO)C(=O)N[C@@H](CCCCN)C(=O)N[C@@H](CCC(=O)O)C(=O)N[C@H](C(=O)N[C@H](C(=O)N[C@@H](CO)C(N)=O)[C@@H](C)CC)[C@@H](C)CC)[C@@H](C)CC)[C@@H](C)CC [compound 17]?
Answer: Food Intake % inhibition 30 min [2]: 49%; Food Intake % inhibition 60 min [2]: 68%; Food Intake % inhibition 120 min [2]: 77%; Food Intake % inhibition 180 min [2]: 79%

Question: Which “Food Intake % inhibition 30 min” value [2] does the source give for CCCCCCCC[C@H](NC(=O)[C@H](C)NC(=O)[C@H](C)NC(=O)[C@H](CCCCN)NC(=O)[C@H](CCC(=O)O)NC(=O)[C@H](CC(=O)O)NC(=O)[C@H](CC(C)C)NC(=O)[C@H](CCC(N)=O)NC(=O)[C@H](CCC(N)=O)NC(=O)[C@@H](NC(=O)[C@@H](NC(=O)[C@H](CC(=O)O)NC(=O)[C@H](CO)NC(=O)[C@@H](NC(=O)[C@H](Cc1ccccc1)NC(=O)[C@@H](NC(=O)[C@H](Cc1ccccc1)NC(=O)[C@H](CCC(=O)O)NC(=O)[C@@H](C)NC(=O)[C@@H](N)Cc1c[nH]cn1)[C@@H](C)O)[C@@H](C)O)C(C)C)[C@@H](C)O)C(=O)N[C@@H](CCC(=O)O)C(=O)N[C@@H](Cc1ccccc1)C(=O)N[C@H](C(=O)N[C@@H](CC(=O)O)C(=O)N[C@@H](Cc1c[nH]c2ccccc12)C(=O)N[C@@H](CC(C)C)C(=O)N[C@H](C(=O)N[C@@H](CC(N)=O)C(=O)NCC(=O)NCC(=O)N1CCC[C@H]1C(=O)N[C@@H](CO)C(=O)N[C@@H](CCCCN)C(=O)N[C@@H](CCC(=O)O)C(=O)N[C@H](C(=O)N[C@H](C(=O)N[C@@H](CO)C(N)=O)[C@@H](C)CC)[C@@H](C)CC)[C@@H](C)CC)[C@@H](C)CC [compound 18] here?
Answer: 14%

Question: And the “Food Intake % inhibition 60 min” value [2]?
Answer: 40%

Question: What about the “Food Intake % inhibition 120 min” value [2] of the same compound?
Answer: 59%

Question: What about the “Food Intake % inhibition 180 min” value [2] of the same compound?
Answer: 62%

Question: Which results are given for CC[C@H](NC(=O)[C@@H](N)Cc1c[nH]cn1)C(=O)N[C@@H](CCC(=O)O)C(=O)NCC(=O)N[C@H](C(=O)N[C@@H](Cc1ccc(O)cc1)C(=O)N[C@H](C(=O)N[C@@H](CC(N)=O)C(=O)N[C@@H](CC(=O)O)C(=O)N[C@H](C(=O)N[C@H](C(=O)N[C@@H](CCC(=O)O)C(=O)N[C@@H](Cc1ccc(O)cc1)C(=O)N[C@@H](CC(C)C)C(=O)N[C@@H](CCC(=O)O)C(=O)N[C@@H](CCC(=O)O)C(=O)N[C@@H](CCCCN)C(=O)N[C@@H](C)C(=O)N[C@@H](C)C(=O)N[C@@H](CCCCN)C(=O)N[C@@H](CCC(=O)O)C(=O)N[C@@H](Cc1ccccc1)C(=O)N[C@H](C(=O)N[C@@H](CCC(=O)O)C(=O)N[C@@H](Cc1c[nH]c2ccccc12)C(=O)N[C@@H](CC(C)C)C(=O)N[C@H](C(=O)N[C@@H](CCCCN)C(=O)NCC(=O)N[C@@H](CCCCN)C(=O)N1CCC[C@H]1C(=O)N[C@@H](CCCCN)C(=O)N[C@@H](CCCCN)C(=O)N[C@H](C(=O)N[C@@H](CCCNC(=N)N)C(=O)N[C@@H](Cc1ccc(O)cc1)C(=O)N[C@@H](CO)C(N)=O)[C@@H](C)CC)[C@@H](C)CC)[C@@H](C)CC)[C@@H](C)O)C(C)C)[C@@H](C)O)[C@@H](C)O [compound 28]?
Answer: Food Intake % inhibition 30 min [2]: 44%; Food Intake % inhibition 60 min [2]: 60%; Food Intake % inhibition 120 min [2]: 69%; Food Intake % inhibition 180 min [2]: 62%
